# Laboratory results reported in patent publication US6723753B2, “Substituted n-benzyl-n-phenyl aminoalcohol compounds useful for inhibiting cholesteryl ester transfer protein activity” (Pharmacia Corporation, priority 2002, dated 2004).
# Biological target: T1, CETP (Homo sapiens, UniProt P11597)
# T1 sequence (P11597 18-493): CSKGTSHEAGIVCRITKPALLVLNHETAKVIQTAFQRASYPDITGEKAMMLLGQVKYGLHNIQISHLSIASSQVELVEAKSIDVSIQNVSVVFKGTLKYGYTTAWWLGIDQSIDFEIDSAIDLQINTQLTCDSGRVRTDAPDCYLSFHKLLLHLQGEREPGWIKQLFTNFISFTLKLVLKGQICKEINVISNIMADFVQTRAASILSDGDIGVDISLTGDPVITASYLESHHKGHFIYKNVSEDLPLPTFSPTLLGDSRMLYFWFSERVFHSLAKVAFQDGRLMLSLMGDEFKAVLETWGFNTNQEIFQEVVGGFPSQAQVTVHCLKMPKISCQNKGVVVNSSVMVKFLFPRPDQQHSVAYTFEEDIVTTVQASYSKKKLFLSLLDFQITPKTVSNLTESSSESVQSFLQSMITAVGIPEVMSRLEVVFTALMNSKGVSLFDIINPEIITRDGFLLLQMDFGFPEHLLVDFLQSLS
# Test: Assay of CETP Inhibition using Purified Components (Reconstituted Buffer Assay)
# Type: biochemical
# Set-up: made in house; host or cells: CHO cells (serum-free conditioned medium)
# Conditions: Inhibition of CETP activity in reconstituted buffer assay; transfer of [3H]CE from HDL to LDL
# Method: Assay of CETP Inhibition using Purified Components (Reconstituted Buffer Assay)
# The ability of compounds to inhibit CETP activity was assessed using an in vitro assay that measured the rate of transfer of radiolabeled cholesteryl ester ([^3H]CE) from HDL donor particles to LDL acceptor particles. Details of the assay are provided by Glenn, K. C. et al. (Glenn and Melton, “Quantification of Cholesteryl Ester Transfer Protein (CETP): A) CETP Activity and B) Immunochemical Assay of CETP Protein,” Meth. Enzymol., 263, 339-351 (1996)). Human recombinant CETP can be obtained from the serum-free conditioned medium of CHO cells transfected with a cDNA for CETP and purified as described by Wang, S. et al. (J. Biol. Chem. 267, 17487-17490 (1992)). To measure CETP activity, [^3H]CE-labeled-HDL, LDL, CETP and assay buffer (50 mM tris(hydroxymethyl)aminomethane, pH 7.4; 150 mM sodium chloride; 2 mM ethylenediamine-tetraacetic acid (EDTA); 1% bovine serum albumin) were incubated in a final volume of 200 μL, for 2 hours at 37° C. in 96 well plates. […] The inhibitors were then diluted 1:1 with CETP in assay buffer, and then 25 μL of that solution was mixed with 175 μL of lipoprotein pool for assay. […] After filtration, the radioactivity present in the precipitated LDL was measured by liquid scintillation counting. […]
# Examples of IC50 values determined by these methods are specified in Table 9.
smiles,measurement,value
OC(CN(Cc1cccc(OC(F)(F)F)c1)c1ccc(F)cc1)C(F)(F)F (stereo not shown) [Example 90],IC50,9 µM
